Measured values taken from US10968184B2, “Pyrimidine prodrugs for the treatment of viral infections and further diseases” (Janssen Sciences Ireland Unlimited Company, priority 2016, dated 2021).

How the values were obtained:
[1] = Stability in fasted simulated intestinal fluid (FASSIF); details: FASSIF with pancreatine and esterase, incubation up to 2 hours
[2] = Plasma stability in human plasma; details: 37° C., 1 μM, 7 or 24 h
[3] = Intrinsic clearance in rat liver microsomes; details: 37° C., 1 μM compound, 1 mg/mL microsomal protein, up to 60 min
[4] = Stability in simulated gastric fluid (SGF); details: SGF with pepsin, incubation up to 2 hours
[5] = Plasma stability in rat plasma; details: 37° C., 1 μM, 7 or 24 h
[6] = tested on: MDCK cell line transfected with human MDR1 (P-glycoprotein); experiment: Permeability and efflux in vitro in MDCK-MDR1 cell line; details: MDCK-MDR1 cells, B->A -GF120918 / A->B -GF120918
rat hepatocytes = experiment: Intrinsic clearance in rat hepatocytes; details: 10^6 cells/mL, 1 μM, up to 120 min
human hepatocytes = experiment: Intrinsic clearance in human hepatocytes; details: 10^6 cells/mL, 1 μM, up to 120 min

With `CCCC[C@H](CO[Si](C)(C)C(C)(C)C)Nc1nc(NP(=O)(OCOC(=O)C(C)(C)C)OCOC(=O)C(C)(C)C)ncc1OC` as the compound, how does the “t1/2 FASSIF” value [1] read?
The value was 6 min.

And the t1/2 human plasma [2]?
Its t1/2 human plasma is 60 min.

What about the CLint rat liver microsomes [3] of the same compound?
The CLint rat liver microsomes was over 347 µL/min/mg.

And the “t1/2 SGF” value [4]?
The value was 234 min.

What about the t1/2 rat plasma [5] of the same compound?
Its t1/2 rat plasma is under 24 min.

What about the Efflux ratio B->A/A->B [6] of the same compound?
Its Efflux ratio B->A/A->B is over 43.

And the CLint hepatocytes rat (uL/min/1e6 cells) (rat hepatocytes)?
The CLint hepatocytes rat (uL/min/1e6 cells) was over 280.

And the CLint hepatocytes human (uL/min/1e6 cells) (human hepatocytes)?
Its CLint hepatocytes human (uL/min/1e6 cells) is over 280.
